Values quoted from earlier work, collected in paper PMC6747051, “Screening of Antiviral Components of Ma Huang Tang and Investigation on the Ephedra Alkaloids Efficacy on Influenza Virus Type A” (Frontiers in Pharmacology, 2019).

Conditions: 40 mg/kg^-1 to 80 mg/kg^-1 ref Wang et al., 2001; cited from earlier work

In the case of `CN[C@@H](C)[C@@H](O)c1ccccc1` [DPEP, D-pseudoephedrine], the “effect on the spontaneous activity of mice” value is listed as “no significant effect on the spontaneous activity”.
In the case of `CN[C@@H](C)[C@H](O)c1ccccc1` [LEP, L-ephedrine], the “effect on the spontaneous activity of mice” value is given as “no significant effect on the spontaneous activity”.
